Patent US11192890B2, “FGFR kinase inhibitors and pharmaceutical uses” (AUCKLAND UNISERVICES LIMITED, priority 2017, dated 2021)

System: SNU-16 (FGFR2-amplified) gastric cancer xenograft
Assay: Anti-tumour activity, SNU-16 xenograft
Type: in vivo, NIH-III nude mice
Conditions: 6.25 mg/kg, qdx12, PO

Substance: AZD4547 [reference compound]
- tumour response: progressive growth
